{"source": "patent US20220193021A1", "about": "(priority 2019, published 2022)", "key": {"influenza virus": {"tested_on": "influenza virus", "type": "cell-based"}, "[1]": {"tested_on": "influenza virus strain H1N1"}, "[2]": {"tested_on": "influenza virus strain H3N2"}}, "note": "Counter-ions that a name gives are not always drawn.", "data": [{"smiles": "N=C(N)c1ccc2cc(OC(=O)c3ccc(N=C(N)N)cc3)ccc2c1", "note": "[nafamostat mesylate]", "values": [{"measurement": "therapeutic window", "setting": "influenza virus", "result": 48, "unit": "h"}, {"measurement": "activity against H1N1 virus", "setting": "[1]", "result": "inhibitory activity"}, {"measurement": "activity against H3N2 virus", "setting": "[2]", "result": "inhibitory activity"}]}]}
